Test results as given in patent US11058744B2, “Composition for treating prostate cancer” (GemVax & KAEL Co., Ltd., priority 2013, dated 2021).

How the values were obtained:
[1] = system: MMP2 (Matrix Metalloproteinase-2); test: MMP2 mRNA expression in LNCaP xenograft tumor tissue (RT-PCR); format: in vivo, BALB/c-nu mice; conditions: 10 mg/kg Pep1, compared to control (vehicle) and positive control (Leuprolide 0.1 mg/kg); FIG. 16
Procedure: (§1) Relative expression levels in tissues xenografted with LNCaP were evaluated to identify the expression of MMP9 (Matrix Metalloproteinase-9) and MMP2 (Matrix Metalloproteinase-2), which are mRNA markers and show cancer cell migration (see FIGS. 15 and 16).
(§2) Test groups 14) to 16) were grafted with LNCaP cell. This experiment was performed by using the reagents and materials and the cell line incubation method which are described in connection with Example 1.
(§3) Test animals: 3 test groups were grafted with the LNCaP cell. The test groups consisted of 5-week BALB/c-nu mice (obtained from Central Lab. Animal Inc., Seoul, Korea). For each group, 6 mice and extra 5 mice were stabilized for 1 week. […]
(§4) From tumor tissues harvested from the 3 test groups, RNA was extracted, and RT-PCR was performed thereon by using primers of MMP9 and MMP2. Each sample obtained by RT-PCR amplification was allowed to flow through 2D gel by electrophoresis, and then, fluorescence-stained to measure the level of expression. […]
(§5) The relative expression level of MMP9 was evaluated with reference to the expression level of the control (vehicle) being set to 2 (see FIG. 15), and the relative expression level of MMP2 was evaluated with reference to the expression level of the control (vehicle) being set to 38 (see FIG. 16).

[2] = system: MMP9 (Matrix Metalloproteinase-9); test: MMP9 mRNA expression in LNCaP xenograft tumor tissue (RT-PCR); format: in vivo, BALB/c-nu mice; conditions: 10 mg/kg Pep1, compared to control (vehicle) and positive control (Leuprolide 0.1 mg/kg); FIG. 15
Procedure: as §1, §2, §3, §4, §5

LNCaP cell xenograft = test: Tumor volume in LNCaP cell xenograft model; format: in vivo, BALB/c-nu mice; conditions: for cancer growth inhibition (tumor volume), co-administration with docetaxel: FIG. 5; for cancer growth inhibition (tumor volume): subcutaneous every day, 20 days, FIG. 4
Procedure: Test groups 1) to 7) were grafted with the LNCaP cell. This experiment was performed by using the reagents and materials and the cell line incubation method which are described in connection with Example 1.
(§6) Test animals: 7 test groups were grafted with the LNCaP cell. The test groups consisted of 5-week BALB/c-nu mice (obtained from Central Lab. Animal Inc., Seoul, Korea). For each group, 6 mice and extra 5 mice were stabilized for 1 week. Each mouse was grafted at its side with the LNCaP cell having the cell population of 1*10^7 cells suspended in 100 μl PBS, and observed for 2 weeks. […] The 7 test groups, each consisting of the remaining 6 mice, were treated according to the conditions as below for 20 days. Tumor volume was measured by using calipers according to the following: [width^2×length×0.5 cm^3]
Following the grafting, Pep1 and leuprolide acetate (positive control) were administered to the 6 test groups by subcutaneous injection every day. • 1) LNCaP-grafted control (vehicle) • 2) LNCaP graft+0.01 mg/kg of Pep1 • 3) LNCaP graft+0.1 mg/kg of Pep1 • 4) LNCaP graft+1 mg/kg of Pep1 • 5) LNCaP graft+10 mg/kg of Pep1 • 6) LNCaP graft+0.1 mg/kg of leuprolide acetate • 7) LNCaP graft+0.1 mg/kg of leuprolide acetate+0.1 mg/kg of Pep1
Test groups 8) to 13) were grafted with the LNCaP cell. This experiment was performed by using the reagents and materials and the cell line incubation method which are described in connection with Example 1.
as §6, with “animals: 6” for “animals: 7”, “following: [width×length×0.5” for “following: [width^2×length×0.5”
Following the grafting, Pep1 and docetaxel were administered to the 5 test groups • 8) LNCaP-grafted control • 9) LNCaP graft+20 mg/kg of docetaxel (once a week, intraperitoneal administration) • 10) LNCaP graft+30 mg/kg of Pep1 (three times a week, subcutaneous administration) • 11) LNCaP graft+3 mg/kg of Pep1+20 mg/kg of docetaxel • 12) LNCaP graft+10 mg/kg of Pep1+20 mg/kg of docetaxel • 13) LNCaP graft+30 mg/kg of Pep1+20 mg/kg of docetaxel
Then, the amounts of water and diet, the tumor volume (a shorter diameter, a longer diameter), tumor weight/body weight, thigh muscle weight were measured. In addition, cancer cell samples were prepared, and PCNA (cell growth marker)/TUNEL (apoptosis marker) staining was performed.
(§7) To analyze test results, averages of test groups were verified by performing student's t-test. The reference of the statistical significance was set at p<0.05(*) or p<0.01(**).

[3] = Body weight of LNCaP cell-xenografted model; conditions: FIG. 6
LNCaP cell line [4] = test: MTT assay, cancer cell growth inhibition in LNCaP cell line; format: cell-based, human
Procedure: To identify effects of Pep1 on prostate cancer, the LNCaP cell line was subjected to MTT assay. The cancer cells growth inhibition effects were identified by using the reagents and materials and the cell line incubation method which are described in connection with Example 1. The MTT assay was performed as follows:
The LNCaP cell line having a certain cell population (3×10^3/well) incubated in a 96 well plate (SPL) was incubated in a growth medium containing Pep1 (0, 0.1, 0.3, 1, 3, and 10 μM) and docetaxel (3 nM) for 72 hours, and MTT reagent was added in an amount of 40 μl to each well. After four hours of reaction, the cells were dissolved in DMSO, and an absorbance thereof was measured at a wavelength of 570 nm.
Separately, the same experiment as described above was performed, except that the incubation time and concentration of Pep1 varied. The LNCaP cell line having a certain cell population (3×10^3/well) incubated in a 96 well plate (SPL) was cultured in a growth medium containing Pep1(0, 0.01, 1, 10, and 30 μM) for 96 hours, and then, the MTT reagent was added in an amount of 40 μl to each well. After four hours of reaction, the cells were dissolved in DMSO, and an absorbance thereof was measured at a wavelength of 570 nm.
as §7

LNCaP cell line [5] = test: Transwell migration assay on LNCaP cell line; format: cell-based, human; conditions: 10 μM and 30 μM
Procedure: The effects of Pep1 on cancer cell migration were evaluated by trans-well assay.
The cancer cell migration was evaluated by using the reagents and materials and the cell line incubation method which are described in connection with Example 1. A migration assay method used for this experiment is as follows.
The LNCaP cell line was incubated on a 6-well plate overnight, and then treated with various concentrations of Pep1 (0, 1, 10, 30 μM) and incubated for 24 hours. Thereafter, the resultant LNCaP cell line was seeded at the cell population of 1×10^4/well on a trans-well plate. Three hours after, the upper compartment of each well was removed, and cells that had migrated downwards were immobilized, stained, and quantified.
A separate experiment was further performed to identify cell migration when Pep1 was co-administered with docetaxel. The LNCaP cell line was incubated on a 6-well plate overnight, and then, treated with various concentrations of Pep1(0, 1, 3, 10, and 30 μM) and incubated for 24 hours. Additionally, the cell line was incubated in a growth medium containing docetaxel (3 nM) for 48 hours, and then, seeded on a trans-well plate at a cell population of 1×10^4/well. Three hours after, the upper compartment of each well was removed, and cells that had migrated downwards were immobilized, stained, and quantified. […]

CC[C@H](C)[C@H](NC(=O)[C@H](Cc1ccccc1)NC(=O)[C@H](CCCNC(=N)N)NC(=O)[C@H](CC(C)C)NC(=O)[C@H](CCCNC(=N)N)NC(=O)[C@H](CO)NC(=O)[C@@H](NC(=O)[C@H](CC(C)C)NC(=O)[C@H](CC(C)C)NC(=O)[C@H](C)NC(=O)[C@@H]1CCCN1C(=O)[C@H](CCCNC(=N)N)NC(=O)[C@H](C)NC(=O)[C@@H](N)CCC(=O)O)[C@@H](C)O)C(=O)N1CCC[C@H]1C(=O)N[C@@H](CCCCN)C(=O)O [Pep1, EARPALLTSRLRFIPK]
relative expression level of MMP2 mRNA in tumor tissues [1]: low expression levels | relative expression level of MMP9 mRNA in tumor tissues [2]: low expression levels | inhibition of volume of cancer cells, co-administration with leuprolide acetate (LNCaP cell xenograft; 0.1 mg/kg leuprolide acetate + 0.1 mg/kg Pep1 (group 7) vs leuprolide acetate alone (group 6)): produces effects of inhibiting the volume of cancer cells | cancer growth inhibition (tumor volume), co-administration with docetaxel (LNCaP cell xenograft; 10 mg/kg Pep1 + 20 mg/kg docetaxel, final evaluation phase): distinct cancer growth inhibition effects were obtained | cancer growth inhibition (tumor volume) (LNCaP cell xenograft; Pep1 0.01 mg/kg and 0.1 mg/kg): significant cancer growth inhibition effects were not obtained | cancer growth inhibition (tumor volume) (LNCaP cell xenograft; Pep1 1 mg/kg and 10 mg/kg, compared to leuprolide acetate 0.1 mg/kg positive control): high inhibition effects were obtained | cancer growth inhibition (tumor volume), co-administration with docetaxel (LNCaP cell xenograft; Pep1 co-administered with 20 mg/kg docetaxel): significant inhibition effects was obtained | body weight ([3]; 0.1 mg/kg leuprolide acetate together with 0.1 mg/kg Pep1 (group 7) vs vehicle control): no significant difference in the body weight | body weight ([3]; Pep1 0.01-10 mg/kg (groups 2 to 5) vs vehicle control): no significant difference in the body weight | cell growth inhibition (MTT) with docetaxel (LNCaP cell line [4]; 3 nM docetaxel and Pep1 3 μM, 10 μM or 30 μM vs 0, 0.1, 0.3 or 1 μM, FIG. 3): statistically significant cell growth inhibition effects | cell growth inhibition (MTT), repeated experiment (LNCaP cell line [4]; Pep1 0, 0.01, 1, 10, 30 μM, 96 hours, FIG. 2): inhibited cell growth in a concentration-dependent manner | cell growth inhibition (MTT) (LNCaP cell line [4]; Pep1 10 μM vs 0, 0.1, 0.3, 1 or 3 μM, 72 hours, FIG. 1): statistically significant cell growth inhibition effects | cell growth inhibition (MTT) with docetaxel, concentration dependence (LNCaP cell line [4]; Pep1 used together with 3 nM docetaxel): concentration-dependent cell growth inhibition effects | cancer cell migration (migrated cell number) (LNCaP cell line [5]; Pep1 1 μM, 24 hours, vs Pep1-free medium, FIGS. 7 and 8): the cancer cell migration was statistically significantly inhibited | cancer cell migration (migrated cell number) with docetaxel (LNCaP cell line [5]; medium containing docetaxel (3 nM) treated with Pep1 3 μM, FIGS. 9 to 14): the cancer cell migration was statistically significantly inhibited
